The values below come from ChEMBL document CHEMBL4330088, “Targeting the immunity protein kinases for immuno-oncology” (Eur J Med Chem, 2019).

Amino acid sequences for entries named in this document (tags omitted).
UniProt P42336, whole entry: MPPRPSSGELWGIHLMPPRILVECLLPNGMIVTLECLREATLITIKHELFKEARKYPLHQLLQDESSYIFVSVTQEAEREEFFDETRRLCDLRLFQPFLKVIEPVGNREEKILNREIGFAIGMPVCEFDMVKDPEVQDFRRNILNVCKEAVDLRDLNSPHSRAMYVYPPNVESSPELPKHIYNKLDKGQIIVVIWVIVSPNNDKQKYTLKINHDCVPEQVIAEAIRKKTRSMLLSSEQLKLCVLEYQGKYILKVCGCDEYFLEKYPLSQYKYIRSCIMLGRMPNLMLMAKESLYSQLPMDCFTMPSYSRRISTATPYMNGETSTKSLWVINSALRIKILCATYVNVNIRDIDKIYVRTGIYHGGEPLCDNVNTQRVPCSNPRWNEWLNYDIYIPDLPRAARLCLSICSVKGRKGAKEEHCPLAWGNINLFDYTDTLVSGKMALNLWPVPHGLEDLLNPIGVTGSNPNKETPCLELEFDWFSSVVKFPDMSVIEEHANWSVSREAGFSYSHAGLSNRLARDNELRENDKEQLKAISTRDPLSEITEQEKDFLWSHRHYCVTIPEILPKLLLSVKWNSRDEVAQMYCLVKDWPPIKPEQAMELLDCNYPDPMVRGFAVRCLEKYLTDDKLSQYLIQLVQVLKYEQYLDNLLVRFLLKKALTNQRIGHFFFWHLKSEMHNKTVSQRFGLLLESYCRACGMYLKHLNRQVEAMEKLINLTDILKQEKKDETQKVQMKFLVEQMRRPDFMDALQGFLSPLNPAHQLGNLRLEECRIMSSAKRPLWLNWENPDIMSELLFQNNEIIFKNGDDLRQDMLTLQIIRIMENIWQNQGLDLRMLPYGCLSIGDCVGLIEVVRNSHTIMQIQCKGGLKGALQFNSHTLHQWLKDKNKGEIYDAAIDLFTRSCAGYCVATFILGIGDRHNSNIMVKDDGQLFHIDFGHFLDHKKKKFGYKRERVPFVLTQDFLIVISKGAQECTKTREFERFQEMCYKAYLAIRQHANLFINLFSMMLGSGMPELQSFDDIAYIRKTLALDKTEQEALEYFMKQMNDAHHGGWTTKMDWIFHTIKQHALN

For experiment [1], the target named is T1, Phosphatidylinositol 4,5-bisphosphate 3-kinase catalytic subunit delta isoform (Homo sapiens, UniProt O00329).
T1 sequence (O00329 whole entry): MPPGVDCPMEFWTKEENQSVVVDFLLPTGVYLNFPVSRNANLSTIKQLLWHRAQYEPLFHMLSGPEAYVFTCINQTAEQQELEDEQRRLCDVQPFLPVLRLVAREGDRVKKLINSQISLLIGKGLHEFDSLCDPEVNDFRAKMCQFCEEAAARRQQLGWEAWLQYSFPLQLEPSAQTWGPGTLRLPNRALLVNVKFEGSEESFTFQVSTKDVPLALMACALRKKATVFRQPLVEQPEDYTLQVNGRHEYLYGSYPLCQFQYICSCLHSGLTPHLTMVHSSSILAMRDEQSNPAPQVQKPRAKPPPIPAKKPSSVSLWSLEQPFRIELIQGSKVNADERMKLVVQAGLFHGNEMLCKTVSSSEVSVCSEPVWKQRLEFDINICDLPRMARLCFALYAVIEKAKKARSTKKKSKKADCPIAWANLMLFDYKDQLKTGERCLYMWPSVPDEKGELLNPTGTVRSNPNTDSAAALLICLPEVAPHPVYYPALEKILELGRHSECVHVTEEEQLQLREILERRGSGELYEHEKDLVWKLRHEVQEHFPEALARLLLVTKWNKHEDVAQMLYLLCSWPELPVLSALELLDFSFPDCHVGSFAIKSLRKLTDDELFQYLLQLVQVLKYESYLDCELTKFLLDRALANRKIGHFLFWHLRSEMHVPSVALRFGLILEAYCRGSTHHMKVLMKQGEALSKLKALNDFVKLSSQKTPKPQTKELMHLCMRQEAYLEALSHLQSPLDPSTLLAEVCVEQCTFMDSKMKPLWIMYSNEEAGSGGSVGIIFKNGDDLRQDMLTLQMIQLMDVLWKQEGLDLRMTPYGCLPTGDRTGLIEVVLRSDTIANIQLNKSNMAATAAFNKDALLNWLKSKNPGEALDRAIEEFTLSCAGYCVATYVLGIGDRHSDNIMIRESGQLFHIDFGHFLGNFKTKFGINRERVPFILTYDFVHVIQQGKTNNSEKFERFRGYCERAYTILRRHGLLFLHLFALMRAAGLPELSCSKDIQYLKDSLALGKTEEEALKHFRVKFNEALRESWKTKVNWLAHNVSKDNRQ
Briefly: Inhibition of PI3Kdelta (unknown origin).

Experiment [2] concerns the target Phosphatidylinositol 4,5-bisphosphate 3-kinase catalytic subunit alpha isoform (Homo sapiens, UniProt P42336). The experiment is described as follows: Inhibition of PI3Kalpha (unknown origin).

Each structure is given as a SMILES string. pIC50: −log10 of the molar value.

A word on the pIC50: it is the IC50 on a negative log10 scale, so that one unit is a factor of ten. A lower pIC50 goes with a high IC50.

In the case of `C[C@H](NC(=O)c1c(N)nn2cccnc12)c1cc2cccc(C#Cc3cnn(C)c3)c2c(=O)n1-c1ccccc1` [EGANELISIB], the results for the pIC50 in experiment [1] and in experiment [2] were 7.64 and 7.77, respectively.
